Source: PubChem BioAssay AID651664 (NMMLSC, 2012)
The list shows a part of the results, in another mix than the full data. Activity calls are given as the source filed them.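 The calls were made as follows: active = inhibition of granule release above a set limit; inactive = the rest.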

Experiment: LAMP-1 surface externalization blockers in TALL-104 cells – cell-based, flow cytometry, validation set (AID 651664)
Settings: TALL-104 LAMP-1 externalization, at 15.2 µM, hits give high values, stimulated with thapsigargin and PMA

SMILES	inhibition
O=C(NCC1(N2CCOCC2)CCCCC1)c1cc2ccccc2o1	inactive: -1.6%
